Measurements as given in patent US20040214320A1, “Mammalian gamete and embryo culture media supplement and method of using same” (Vitrolife, Inc,, priority 2000, published 2004).

Experiments:
outbred mouse embryo [1] = test: Outbred mouse embryo development in culture, fertilized eggs cultured 4 days (G1.2 48 h, then G2.2 48 h); assay type: cell-based
Procedure: Embryos were cultured at 37° C. in 6% CO2:5% O2:89% N2 in an embryo incubation volume of 10 embryos: 20 μl of medium. Embryos were cultured in medium G 1.2 for 48 h followed by 48 h of culture in medium G 2.2.
Initial experiments investigated replacing albumin purified from blood with HYN for outbred mouse embryo development in culture. Fertilized eggs were cultured for 4 days in one of 4 different concentrations of HYN. Embryos were cultured at 37° C. in 6% CO2:5% O2:89% N2 in an embryo incubation volume of 10 embryos: 20 μl of medium. Embryos were cultured in medium G1.2 for 48 h followed by 48 h of culture in medium G2.2. The negative control treatment was no protein.
Fertilized eggs were cultured for 4 days. Embryos were cultured at 37° C. in 6% CO2:5% O2:89% N2 in an embryo incubation volume of 10 embryos: 20 μl of medium. Embryos were cultured in medium G 1.2 for 48 h followed by 48 h of culture in medium G 2.2.
Embryos were cultured at 37° C. in 6% CO2:5% O2:89% N2 in an embryo incubation volume of 10 embryos: 20 μl of medium. Embryos were cultured in medium G1.2 for 48 h followed by 48 h of culture in medium G2.2.

outbred mouse embryo [2] = test: Outbred mouse embryo development after transfer of cultured blastocysts to recipient mice; assay type: in vivo; conditions: cultured 4 days, transferred at blastocyst stage to recipient females
Procedure: Media G1.2/G2.2 were prepared from concentrated stock solutions as taught in Example 1. rHA was added as a 250 mg/ml stock solution of 200 μto 9.8 mls of media, fermented HYN was added from a x100 stock solution of 100 μl to 10 mls of media. Subsequent experiments investigated replacing albumin purified from blood with rHA together with fermented HYN for outbred mouse embryo development after transfer to recipient mice. Fertilized eggs were cultured for 4 days and then transferred at the blastocyst stage to recipient females. Embryos were cultured at 37° C. in 6% CO2:5% O2:89% N2 in an embryo incubation volume of 10 embryos: 20 μl of medium. Embryos were cultured in medium G1.2 for 48 h followed by 48 h of culture in medium G2.2.

CF1 mouse embryos [3] = test: CF1 mouse embryo culture to the blastocyst stage; assay type: cell-based
Procedure: (§1) This experiment investigated the effects of growing CF1 mouse embryos in culture in the presence of rHA and HYN on the ability of the embryos to survive freezing and thawing. CF1 mouse embryos were cultured to the blastocyst stage and development and ability to survive the freezing procedure was assessed.

CF1 mouse embryos [4] = test: CF1 mouse blastocyst survival of freezing and thawing; assay type: cell-based
Procedure: as §1

CF1 mouse blastocysts = test: Blastocyst attachment and outgrowth in culture following cryopreservation; assay type: cell-based
Procedure: The ability of the blastocysts to outgrow in culture following cryopreservation was also assessed. The outgrowth of both the ICM and TE was scored between 0-3 where 0 represented no outgrowth and 3 represented extensive outgrowth.

human embryos = test: Human IVF: pregnancies and implantation; assay type: in vivo; conditions: human IVF patients
Text: The IVF protocol as outlined in Gardner et al. 1988 and Schoolcraft 1999 were used in this example.

cow embryos = test: Cow embryo development in culture, fertilized eggs cultured 6 to 7 days (G1.2 72 h, then G2.2 72 h); assay type: cell-based
Procedure: (§2) Fertilized eggs were cultured for 6 to 7 days. Embryos were cultured at 38.5° C. in 6% CO2:5% O2:89% N2 in 500 μl of medium. Embryos were cultured in medium G1.2 for 72 h followed by 72 h of culture in medium G2.2.
as §2
Fertilized eggs were cultured for 6 to 7 days. Embryos were cultured at 38.5° C. in 6% CO2:5% O2:89% N2 in 500 μl of medium. Embryos were cultured in medium G1.2 for 72 h, followed by 72 h of culture in medium G2.2. Blastocysts were either stained for cell numbers or frozen and subsequently thawed to assess survival.

[5] = 5 mg/ml in medium, 4 days culture
[6] = Example 3: 5 mg/ml HSA vs 1.25 mg/ml rHA + 0.125 mg/ml HYN, 4 days culture
[7] = CF1 mouse blastocysts after freezing and thawing
[8] = 1.25 mg/ml in medium, 4 days culture
[9] = 2.5 mg/ml in medium, 4 days culture

HSA: naturally occurring human serum albumin (blood product), positive control
% ICM/Total (outbred mouse embryo [1]; [5]): 23.6 ± 0.6% | Blastocyst (outbred mouse embryo [1]; [5]): 72.6 | Cell Number (outbred mouse embryo [1]; [5]): 74.3 ± 2.4^bc | Hatching (outbred mouse embryo [1]; [5]): 38.7 | ICM Number (outbred mouse embryo [1]; [5]): 17.2 ± 0.7^b | TE Number (outbred mouse embryo [1]; [5]): 56.2 ± 2.0^bc | % ICM/Total (outbred mouse embryo [1]; [6]): 24.3 ± 0.5% | Cell Number (outbred mouse embryo [1]; [6]): 73.3 ± 1.7 | ICM Number (outbred mouse embryo [1]; [6]): 17.8 ± 0.6 | TN Number (outbred mouse embryo [1]; [6]): 55.5 ± 1.3 | Fetal development (%) (outbred mouse embryo [2]): 43.3% | Fetus/implantation site (%) (outbred mouse embryo [2]): 68.4% | Implantation rate (%) (outbred mouse embryo [2]): 63.3% | Weight (outbred mouse embryo [2]): 208 mg | Blastocyst Hatching Rates (%) (CF1 mouse embryos [3]): 49.0% | Development to the Blastocyst Stage (%) (CF1 mouse embryos [3]): 88.2% | Completely Hatched After Freezing (CF1 mouse embryos [4]; [7]): 28.6 | Hatching After Freezing (%) (CF1 mouse embryos [4]; [7]): 42.9% | Re-expansion After Freezing (%) (CF1 mouse embryos [4]; [7]): 76.1% | Attachment (%) (CF1 mouse blastocysts): 89.5% | Implantation Rates (human embryos): 32.8% | Resulting Pregnancies (percent) (human embryos): 70% | Resulting Pregnancies (number) (human embryos; HSA 10 patients, RHA + citrate + HYN 12 patients): 7

rHA: recombinant human albumin, in one embodiment obtained from genetically modified yeast
% ICM/Total (outbred mouse embryo [1]; [8]): 24.0 ± 0.6% | Blastocyst (outbred mouse embryo [1]; [8]): 70.7 | Cell Number (outbred mouse embryo [1]; [8]): 72.6 ± 2.2^bc | Hatching (outbred mouse embryo [1]; [8]): 46.6 | ICM Number (outbred mouse embryo [1]; [8]): 17.7 ± 0.6^b | TE Number (outbred mouse embryo [1]; [8]): 56.4 ± 1.9^bc | % ICM/Total (outbred mouse embryo [1]; [9]): 24.2 ± 0.5% | Blastocyst (outbred mouse embryo [1]; [9]): 75 | Cell Number (outbred mouse embryo [1]; [9]): 78.1 ± 2.5^b | Hatching (outbred mouse embryo [1]; [9]): 39.3 | ICM Number (outbred mouse embryo [1]; [9]): 18.4 ± 0.5^b | TE Number (outbred mouse embryo [1]; [9]): 58.4 ± 2.1^b | % ICM/Total (outbred mouse embryo [1]; [5]): 25.2 ± 0.7% | Blastocyst (outbred mouse embryo [1]; [5]): 76.8 | Cell Number (outbred mouse embryo [1]; [5]): 65.9 ± 2.7^ac | Hatching (outbred mouse embryo [1]; [5]): 37.5 | ICM Number (outbred mouse embryo [1]; [5]): 16.3 ± 0.7^b | TE Number (outbred mouse embryo [1]; [5]): 49.6 ± 2.4^ac | embryo development in culture, replacement of HSA (outbred mouse embryo [1]; concentrations of 1.25 to 2.5 mg/ml): able to replace HSA | Total Blastocyst Day 6 (cow embryos; Example 7, cow, day 6): 22.1^b | Total Blastocyst Day 7 (cow embryos; Example 7, cow, day 7): 38.4 | Day 6 Blastocyst Cell Number (cow embryos; Example 8, cow, day 6): 123 ± 7^b | Day 6 Blastocyst Inner Cell Mass Cell Number (cow embryos; Example 8, cow, day 6): 37.9 ± 1.9^b | Total Blastocyst Day 6 (cow embryos; Example 8, cow, day 6): 36.6 | blastocyst hatching after thawing compared to HSA (CF1 mouse embryos [4]; P<0.05): significantly increases | development of the ICM (outgrowth) compared to human serum albumin (CF1 mouse blastocysts): increased

Marks after values point to notes of the source that are not given here.
